Measured values from PubChem BioAssay AID463 (The Scripps Research Institute Molecular Screening Center, 2006).
The list shows a part of the results, in another mix than the full data. Activity calls are given as the source filed them.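 The calls were made as follows: active = inhibition above the mean inhibition of all tested compounds plus 3 SD (cut at about 28% in these data); inactive = the rest.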

test: Jurkat cell viability reduction – Jurkat E6.1, 60K MLSMR library, cytotoxicity control, primary screen (AID 463); settings: Jurkat E6.1 viability, ATP luminescence, 48 h; at 4 µM; stronger effect = higher value

Row | SMILES | inhibition
1 | Cc1ccc(C)c(NP(C)(=O)Oc2ccccc2)c1 (stereo not given) | inactive: -4.6%
2 | Cc1nc2ccc3ccccc3c2s1.O=[N+]([O-])c1cc([N+](=O)[O-])c(O)c([N+](=O)[O-])c1 | inactive: -5.1%
3 | CCOP(C)(=S)SCC(=O)NC(C)C(=O)O (stereo not given) | inactive: 0.6%
4 | CP(=S)(Nn1cnnc1)Oc1ccccc1 (stereo not given) | inactive: 2.2%
5 | Cc1ccc(NP(C)(=O)Oc2ccccc2)c(C)c1 (stereo not given) | inactive: -5.5%
6 | COc1ccccc1OP(C)(=O)Nc1ccc(C)cc1 (stereo not given) | inactive: 5.5%
7 | CP(=O)(Nc1ccccn1)Oc1ccccc1 (stereo not given) | inactive: -0.4%
8 | COc1ccccc1OP(C)(=O)Nc1ccc(C)c(C)c1 (stereo not given) | inactive: -5.1%
9 | Cc1nc2ccc3ccccc3c2o1.O=[N+]([O-])c1cc([N+](=O)[O-])c(O)c([N+](=O)[O-])c1 | inactive: 1.9%
10 | COc1ccccc1OP(C)(=O)Nc1c(C)n(C)n(-c2ccccc2)c1=O (stereo not given) | inactive: -1.1%
11 | CP(=O)(Oc1ccccc1)N1CCOC1=O (stereo not given) | inactive: -1.9%
12 | CCOP(C)(=S)SCC(=O)NC(C)(CC)C(=O)O (stereo not given) | inactive: 5.3%
13 | Cc1ccccc1NP(C)(=O)Nc1ccccc1C | inactive: 1%
14 | CN(C)CCOC(=O)C(O)(c1ccccc1)C1CCCCC1 (stereo not given) | inactive: -2.6%
15 | CP(=O)(Nc1ccccc1F)Oc1ccccc1 (stereo not given) | inactive: 0.3%
